The values that follow come from article PMC12467246, “Characterization of the Anticholinesterase and Antioxidant Properties of Phytochemicals from Moringa oleifera as a Potential Treatment for Alzheimer’s Disease” (Biomedicines, 2025).

Protein sequences, listed by entry. Tags and fused reporters are not part of them. Residues count along the entry.
UniProt P06276, 29-602: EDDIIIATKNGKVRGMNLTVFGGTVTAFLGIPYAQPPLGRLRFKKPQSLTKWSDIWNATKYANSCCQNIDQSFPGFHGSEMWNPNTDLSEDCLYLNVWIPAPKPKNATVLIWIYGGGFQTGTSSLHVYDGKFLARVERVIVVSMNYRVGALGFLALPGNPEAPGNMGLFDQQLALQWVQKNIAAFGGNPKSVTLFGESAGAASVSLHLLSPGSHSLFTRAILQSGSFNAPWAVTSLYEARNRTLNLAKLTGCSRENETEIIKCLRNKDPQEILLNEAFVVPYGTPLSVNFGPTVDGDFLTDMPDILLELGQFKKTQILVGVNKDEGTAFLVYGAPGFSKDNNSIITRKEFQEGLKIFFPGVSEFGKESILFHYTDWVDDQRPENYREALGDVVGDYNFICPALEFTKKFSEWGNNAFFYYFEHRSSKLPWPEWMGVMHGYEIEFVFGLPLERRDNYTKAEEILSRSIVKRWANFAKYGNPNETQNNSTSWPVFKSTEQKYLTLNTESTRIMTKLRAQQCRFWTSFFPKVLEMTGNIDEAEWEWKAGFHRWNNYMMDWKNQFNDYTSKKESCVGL

The assay deals with T1, human butyrylcholinesterase (hBuChE) (Homo sapiens, UniProt P06276).
T1 construct: purchased Sigma B4186
Type of assay: biochemical. The conditions noted are these: mean ± SEM, n = 3, actual or estimated IC50, 20 min pre-incubation; read-out: Enzyme IC50 hBuChE.

Usually IC50 stands for the concentration at which inhibition is half-maximal. For the molecule `CCN(C)C(=O)Oc1cccc([C@H](C)N(C)C)c1` [Rivastigmine, reference compound], the IC50 was 3.6 ± 0.3 µM.
